Measured values published in PubChem BioAssay AID651640 (Broad Institute, 2012).
Only a part is listed here, and it is no random draw. Records with an inconclusive call do not appear. Activity calls are given as the source filed them. Rule as the data show it: active = CPE inhibition above about 20% (passing the limit was not always enough); inconclusive = no clear call, values can overlap the other calls; tested in BHK-21 cells.

assay: protection of cells from dengue 2 killing – plate reader, single concentration, primary screen (AID 651640); details: DENV2-infected cells, cytopathic effect rescue, at 9.99 µM, stronger effect = higher value;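 also: 0% = median of neutral control wells and 100% = median of positive control wells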

Row | Structure (SMILES) | CPE inhibition
1 | CCC(=O)N(c1ccccc1)C1(COC)CCN(CCc2cccs2)CC1 | inactive: -0.97%
2 | CCC(=O)N(c1ccccc1)C1(COC)CCN(CCn2nnn(CC)c2=O)CC1 | inactive: 9.39%
